Biological target: cloned rat kappa opioid receptors (Rattus norvegicus, UniProt P34975)
Assay type: cell-based

Sequences of proteins named here, by UniProt entry; tags and fusion partners are left off. A change or cut given only in a name is not applied to a line headed by its entry.
UniProt P34975: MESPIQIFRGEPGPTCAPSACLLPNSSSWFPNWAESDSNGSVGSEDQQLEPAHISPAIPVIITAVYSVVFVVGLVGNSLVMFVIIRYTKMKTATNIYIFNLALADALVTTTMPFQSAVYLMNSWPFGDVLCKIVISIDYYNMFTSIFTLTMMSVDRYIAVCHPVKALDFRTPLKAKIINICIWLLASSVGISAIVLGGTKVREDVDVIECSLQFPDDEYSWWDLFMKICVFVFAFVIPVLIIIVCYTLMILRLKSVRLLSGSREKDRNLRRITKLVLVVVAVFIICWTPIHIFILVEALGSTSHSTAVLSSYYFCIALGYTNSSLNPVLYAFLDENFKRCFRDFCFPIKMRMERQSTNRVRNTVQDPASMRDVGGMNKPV

Substance	Efficacy (relative)	IC50 (read-out: IC50 (nM), potency (95% CI))	Effect of the compound alone on FMP fluorescence
(−)-cyclazocine	0.64 ± 0.04	1.91 nM	
cyclo [D-Pen^2,D-Pen^5]enkephalin [DPDPE]			neither DPDPE nor DAMGO triggered a decrease in FMP fluorescence intensity
[D-Ala^2,NMePhe^4]enkephalin-glyol [DAMGO]			neither DPDPE nor DAMGO triggered a decrease in FMP fluorescence intensity
